For one molecule, IC50 results are on record in PMC3063489 (Molecular and biochemical parasitology, 2011).

Chains of the proteins cited; added tags and fusions are not shown.
UniProt P23975, whole entry: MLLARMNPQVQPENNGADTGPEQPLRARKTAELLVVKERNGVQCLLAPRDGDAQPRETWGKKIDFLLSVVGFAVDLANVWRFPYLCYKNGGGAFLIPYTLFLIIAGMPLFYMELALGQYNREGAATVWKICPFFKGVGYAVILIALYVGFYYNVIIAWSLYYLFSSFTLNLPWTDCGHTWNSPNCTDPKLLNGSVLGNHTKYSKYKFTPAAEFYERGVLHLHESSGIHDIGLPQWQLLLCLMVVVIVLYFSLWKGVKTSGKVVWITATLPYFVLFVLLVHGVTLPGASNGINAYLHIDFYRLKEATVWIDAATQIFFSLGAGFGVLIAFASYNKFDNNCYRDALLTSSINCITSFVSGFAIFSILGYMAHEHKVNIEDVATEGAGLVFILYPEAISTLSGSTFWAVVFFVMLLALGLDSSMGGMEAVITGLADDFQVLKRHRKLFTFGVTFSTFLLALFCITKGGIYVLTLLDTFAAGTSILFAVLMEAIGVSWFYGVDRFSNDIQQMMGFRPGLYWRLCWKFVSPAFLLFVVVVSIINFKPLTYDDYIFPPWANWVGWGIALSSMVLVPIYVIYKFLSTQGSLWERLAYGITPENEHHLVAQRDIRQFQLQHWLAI

The target in this assay is hNET (Homo sapiens, UniProt P23975). The assay is classed as cell-based.

As usually defined, the IC50 is the concentration needed to halve the response being measured. A lower IC50 goes with inhibition by little substance. In the case of `CC(NC(C)(C)C)C(=O)c1cccc(Cl)c1` (stereo not shown) [Bupropion], the IC50 turned out to be 9.21 ± 1.19 µM.
